Assay results taken from US10556943B2, “HLA-DR binding peptides and their uses” (priority 2007, dated 2020).

Protein sequences, listed by entry. Tags and fused reporters are not part of them. Lines headed by an entry give the natural chain unless they say otherwise; changes in a name come on top.
UniProt P01911: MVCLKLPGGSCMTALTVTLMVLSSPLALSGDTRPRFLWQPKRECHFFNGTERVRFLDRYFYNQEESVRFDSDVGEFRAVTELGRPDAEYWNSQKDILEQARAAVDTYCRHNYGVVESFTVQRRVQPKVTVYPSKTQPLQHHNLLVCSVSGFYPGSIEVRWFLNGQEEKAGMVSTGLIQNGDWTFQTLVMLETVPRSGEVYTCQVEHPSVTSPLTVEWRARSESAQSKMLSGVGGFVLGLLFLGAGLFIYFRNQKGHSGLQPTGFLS

Key:
purified HLA DRB1*1201 = molecular target: T1, purified HLA DRB1*1201 (Homo sapiens, UniProt P01903+P01911, A100R/A169T/D57E/D86V/F55L/H45Y/K41T/L162R/M171V/P40S/Q125H/Q178H/Q39Y/Q99D/R42G/S66L/T262R/V114A/V67L/W38E/Y59H/Y61H/Y89S); assay: HLA-DR radioligand binding inhibition assay, DRB1*1201; details: column 5 of second part of Table I
T1 construct: MHC molecules utilized were purified from EBV transformed homozygous cell lines or single MHC allele transfected 721.221, C1R, or fibroblast lines; made in house; host or cells: EBV transformed homozygous cell lines or single MHC allele transfected 721.221, C1R, or fibroblast lines

purified HLA DRB1*0901 = molecular target: T2, purified HLA DRB1*0901 (Homo sapiens, UniProt P01903+P01911, A100R/A103E/D57H/D86V/F55Y/F60I/F76Y/I96F/K127E/L162R/M171V/P40D/Q125H/Q99R/R33Q/R42F/S133A/S66N/T210M/V115G/W38K/Y107V/Y59G/Y89S); assay: HLA-DR radioligand binding inhibition assay, DRB1*0901
T2 construct: MHC molecules utilized were purified from EBV transformed homozygous cell lines or single MHC allele transfected 721.221, C1R, or fibroblast lines; made in house; host or cells: EBV transformed homozygous cell lines or single MHC allele transfected 721.221, C1R, or fibroblast lines

purified HLA DRB1*0802 = molecular target: T3, purified HLA DRB1*0802 (Homo sapiens, UniProt P01903+P01911, A100R/A103L/A169T/F76Y/H45Y/I96F/K41T/L162R/M171V/P40S/Q125H/Q178H/Q39Y/Q99D/R218S/R42G/S66Y/V115G/W38E); assay: HLA-DR radioligand binding inhibition assay, DRB1*0802
T3 construct: MHC molecules utilized were purified from EBV transformed homozygous cell lines or single MHC allele transfected 721.221, C1R, or fibroblast lines; made in house; host or cells: EBV transformed homozygous cell lines or single MHC allele transfected 721.221, C1R, or fibroblast lines

IC50 (purified HLA DRB1*1201): > 20 µM | IC50 (purified HLA DRB1*0901): > 20 µM | IC50 (purified HLA DRB1*0802): > 20 µM
SMILES: CC(C)C[C@H](NC(=O)[C@H](CC(=O)O)NC(=O)[C@H](CO)NC(=O)[C@@H](N)CCCCN)C(=O)N[C@H](C(=O)N[C@@H](CC(N)=O)C(=O)N[C@@H](CCC(=O)O)C(=O)N[C@@H](CCC(=O)O)C(=O)N[C@@H](C)C(=O)N[C@H](C(=O)NCC(=O)N[C@@H](CCC(N)=O)C(=O)N[C@@H](Cc1ccccc1)C(=O)N[C@@H](CCCNC(=N)N)C(=O)N[C@H](C(=O)O)C(C)C)[C@@H](C)O)C(C)C [Peptide 9019.0115]
